The values below come from US12168086B2, “Hemostatic devices and methods of use” (priority 2016, dated 2024).

In the experiment the test system is blood clotting. The conditions noted are these: higher amounts of TXA (1.6 mg TXA vs 200 mg of TXA) in the presence of TYRX.

For `NC[C@H]1CC[C@H](C(=O)O)CC1` [tranexamic acid], the Clotting time result is “increased”.
